# Apparent affinities of Ab-95 variants for a coronavirus HR2 peptide

The measurements come from Engelhart et al. 2022 (doi:10.1038/s41597-022-01779-4) through the FLAb antibody collection.

Target: peptide PDVDLGDISGINAS, taken from heptad repeat 2 (HR2) of SARS-CoV-2 spike.

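The starting antibody came from a phage panning campaign against this peptide. Variants in AAYL52 differ from the parent at up to three CDR positions; double and triple changes were sampled at random. Affinity was read by AlphaSeq, a pooled yeast mating assay with surface-displayed partners. Pairs that bind mate more often; barcode pairs of the diploids are counted by sequencing. Each replicate has its own calibration line, from reference interactions of the BCL2 family. Mating was done three times.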

Parent scFv Ab-95: VH joined to VL by three GGGGS repeats. Changes lie in the light chain CDRs alone.
VH: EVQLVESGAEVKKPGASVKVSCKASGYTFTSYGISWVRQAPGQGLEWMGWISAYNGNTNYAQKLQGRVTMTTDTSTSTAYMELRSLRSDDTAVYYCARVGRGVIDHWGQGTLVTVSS
VL: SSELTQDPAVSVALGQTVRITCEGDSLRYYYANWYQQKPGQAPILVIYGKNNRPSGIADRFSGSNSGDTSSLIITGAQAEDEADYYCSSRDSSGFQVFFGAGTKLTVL

Changes read parent residue, position, new residue, counted from the first residue of the VL shown. The Kd shown is the geometric mean over detected replicates; a lower Kd is a better binder. "no signal" means that the variant was in the library but no mating with the target was seen in any replicate; the authors take this as a sign of poor binding, and no number exists. Empty control strains, which show no peptide, gave a signal in 28% of pairings with library AAYL52; the median was 8.2 µM and 95% of these signals were weaker than 800 nM. No background was subtracted. For each scFv, signals with the empty controls are counted beside the result. In this assay the parent's reference entry averaged 200 nM; its copy inside this library read 180 nM.

changes	Kd	replicates with signal	control signals
E23T D25I Y29A	220 nM	3 of 3	5 of 9
Y29C N33Y G49P	35 µM	3 of 3	1 of 9
R28M A32R N51M	19 µM	1 of 3	1 of 9
Y31W N33F S93P	35 µM	2 of 3	4 of 9
N33Q P54N S88D	260 µM	1 of 3	2 of 9
D25Q L27C R28L	28 µM	2 of 3	1 of 9
Y30E G49R V97A	2.4 µM	2 of 3	2 of 9
D25L S26D F95H	3.0 µM	1 of 3	1 of 9
E23K D25Y S26H	180 nM	3 of 3	1 of 9
G49F G94Q F95W	no signal	0 of 3	0 of 9
G24Q L27T F95W	no signal	0 of 3	1 of 9
P54L S55V F98D	49 µM	1 of 3	6 of 9
G24Q N52R F98L	2.9 µM	1 of 3	3 of 9
P54R S89P D91V	27 µM	3 of 3	5 of 9
N52G P54E D91Q	7.5 µM	3 of 3	3 of 9
E23Q Y30I G49I	no signal	0 of 3	2 of 9
G24M N51G N52W	4.3 µM	2 of 3	4 of 9
L27T D91Y	7.7 µM	2 of 3	4 of 9
E23K Y29A S89W	160 nM	3 of 3	3 of 9
Y29I S88P S89E	8.0 µM	3 of 3	5 of 9
E23M Y30N Y31P	7.9 nM	3 of 3	2 of 9
L27C S55V S92Q	no signal	0 of 3	1 of 9
S55G V97G F98K	24 µM	2 of 3	3 of 9
G49T R53V	46 µM	1 of 3	4 of 9
E23Y S26A S93K	3.0 µM	3 of 3	3 of 9
S26P A32M	8.0 µM	2 of 3	3 of 9
R53Q R90I F98R	2.9 µM	1 of 3	4 of 9
E23R A32I R90C	290 µM	1 of 3	2 of 9
S88F D91P G94Y	850 nM	3 of 3	0 of 9
Y31I G49S S93L	2.1 µM	1 of 3	1 of 9
G49F K50S S93N	no signal	0 of 3	2 of 9
L27G R90C Q96S	3.1 µM	1 of 3	1 of 9
N51Y P54K	5.3 µM	3 of 3	6 of 9
E23P D25T S88E	320 nM	1 of 3	2 of 9
D25A L27Q Y31G	15 nM	3 of 3	4 of 9
Y30K N51R R90I	no signal	0 of 3	0 of 9
G24Y L27F K50R	3.3 µM	2 of 3	5 of 9
S26W D91K Q96S	20 µM	3 of 3	2 of 9
E23L G49W F98H	no signal	0 of 3	2 of 9
L27A R90M G94M	13 µM	2 of 3	5 of 9
A32L S89L	12 µM	2 of 3	3 of 9
R53M S88D V97Y	no signal	0 of 3	1 of 9
Y31P N51A S93V	1.8 µM	2 of 3	4 of 9
L27H Y30T G94I	15 µM	2 of 3	4 of 9
K50G N52E S89L	1.9 µM	3 of 3	4 of 9
E23W Y29M Y30R	56 nM	3 of 3	5 of 9
S26D R28V Q96I	1.9 µM	3 of 3	4 of 9
S55D S92F F95V	1.1 µM	3 of 3	2 of 9
D25G N52D S93A	1.8 µM	3 of 3	3 of 9
R53H S55L F95A	180 nM	3 of 3	5 of 9
Y30T S55H G94W	1.2 µM	1 of 3	0 of 9
K50C P54S D91V	3.8 µM	2 of 3	2 of 9
A32S R90M D91R	no signal	0 of 3	1 of 9
L27S S88F F98Y	2.7 µM	2 of 3	4 of 9
N52R F95N Q96I	350 nM	2 of 3	2 of 9
E23P Y29V R90T	14 µM	2 of 3	4 of 9
Y29Q A32Q S88H	no signal	0 of 3	0 of 9
A32Q N51Y S92E	no signal	0 of 3	2 of 9
K50Q S92I S93A	350 nM	3 of 3	2 of 9
Y30H N33A D91Y	5.0 µM	3 of 3	4 of 9
L27P G94V V97E	no signal	0 of 3	1 of 9
N33G S92Q G94P	49 µM	1 of 3	3 of 9
E23L Y29K D91A	1.2 µM	3 of 3	6 of 9
R28E P54R S55I	320 nM	3 of 3	4 of 9
G24T K50C N51Q	no signal	0 of 3	0 of 9
G24W S93P F98G	57 µM	2 of 3	2 of 9
R28L N51V N52E	1.4 µM	3 of 3	5 of 9